What was measured:
Test in all cases: Two-electrode voltage-clamp recordings, Xenopus oocytes
Assay type in all cases: cell-based
Settings in all cases: for IC50: IC50, channel block; for IC50 ratio (Mg2+/control): 1 mM Mg2+ versus control
GluN1–1a/2B = GluN1–1a/2B (Rattus norvegicus, UniProt P35439+Q00960)
GluN1–1a/2D = GluN1–1a/2D (Rattus norvegicus, UniProt P35439+Q62645)
GluN1–1a/2BC1/2DC2 = GluN1–1a/2BC1/2DC2 (Rattus norvegicus, UniProt P35439+Q00959+Q00960+Q62645, A876H/F846L/G856D/H848F/K857R/M851T/M860L/Q845K/R869K/V861L/V866F)
[1] = −20 mV, control (absence of Mg2+)
[2] = −40 mV, control (absence of Mg2+)
[3] = −60 mV, control (absence of Mg2+)

Amino acid sequences for entries named in this document (tags omitted). Residues count along the entry.
UniProt Q00960, 27-1482: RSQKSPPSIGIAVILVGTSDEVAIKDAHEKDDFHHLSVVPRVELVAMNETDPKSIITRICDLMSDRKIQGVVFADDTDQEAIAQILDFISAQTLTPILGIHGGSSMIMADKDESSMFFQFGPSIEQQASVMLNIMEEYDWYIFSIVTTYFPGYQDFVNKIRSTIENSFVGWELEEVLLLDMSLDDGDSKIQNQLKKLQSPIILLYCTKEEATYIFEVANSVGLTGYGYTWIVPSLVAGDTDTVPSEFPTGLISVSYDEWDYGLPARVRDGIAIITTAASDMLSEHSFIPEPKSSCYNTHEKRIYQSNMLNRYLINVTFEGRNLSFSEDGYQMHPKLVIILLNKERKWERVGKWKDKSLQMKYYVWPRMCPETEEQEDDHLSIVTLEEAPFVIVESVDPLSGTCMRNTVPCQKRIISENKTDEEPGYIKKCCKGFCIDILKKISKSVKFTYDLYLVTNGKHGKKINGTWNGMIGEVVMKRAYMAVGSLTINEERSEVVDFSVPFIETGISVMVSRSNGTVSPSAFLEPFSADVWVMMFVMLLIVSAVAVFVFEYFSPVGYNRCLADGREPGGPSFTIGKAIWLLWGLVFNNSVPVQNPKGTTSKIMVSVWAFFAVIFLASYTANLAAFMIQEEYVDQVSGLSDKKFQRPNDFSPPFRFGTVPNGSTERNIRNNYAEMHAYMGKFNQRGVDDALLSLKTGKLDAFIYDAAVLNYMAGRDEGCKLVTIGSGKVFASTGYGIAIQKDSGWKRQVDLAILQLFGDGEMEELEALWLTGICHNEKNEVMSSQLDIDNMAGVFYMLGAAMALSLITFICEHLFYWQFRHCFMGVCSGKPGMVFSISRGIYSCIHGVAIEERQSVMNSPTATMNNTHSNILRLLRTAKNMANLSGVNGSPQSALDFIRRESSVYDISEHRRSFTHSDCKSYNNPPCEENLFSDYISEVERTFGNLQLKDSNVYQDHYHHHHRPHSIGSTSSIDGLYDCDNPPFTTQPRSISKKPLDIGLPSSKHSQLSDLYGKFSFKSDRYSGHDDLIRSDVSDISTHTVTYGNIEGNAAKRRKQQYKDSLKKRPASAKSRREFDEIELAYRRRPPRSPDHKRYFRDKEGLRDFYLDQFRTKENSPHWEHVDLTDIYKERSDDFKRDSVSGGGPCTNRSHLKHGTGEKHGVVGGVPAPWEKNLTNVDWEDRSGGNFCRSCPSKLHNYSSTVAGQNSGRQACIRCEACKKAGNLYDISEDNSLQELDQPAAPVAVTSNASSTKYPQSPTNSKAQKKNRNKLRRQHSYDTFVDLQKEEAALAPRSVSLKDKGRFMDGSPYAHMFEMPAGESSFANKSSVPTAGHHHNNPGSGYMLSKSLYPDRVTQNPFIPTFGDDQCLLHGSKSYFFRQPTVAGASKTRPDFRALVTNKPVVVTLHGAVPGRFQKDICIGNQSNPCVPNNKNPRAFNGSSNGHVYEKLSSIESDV
UniProt Q62645, 28-1323: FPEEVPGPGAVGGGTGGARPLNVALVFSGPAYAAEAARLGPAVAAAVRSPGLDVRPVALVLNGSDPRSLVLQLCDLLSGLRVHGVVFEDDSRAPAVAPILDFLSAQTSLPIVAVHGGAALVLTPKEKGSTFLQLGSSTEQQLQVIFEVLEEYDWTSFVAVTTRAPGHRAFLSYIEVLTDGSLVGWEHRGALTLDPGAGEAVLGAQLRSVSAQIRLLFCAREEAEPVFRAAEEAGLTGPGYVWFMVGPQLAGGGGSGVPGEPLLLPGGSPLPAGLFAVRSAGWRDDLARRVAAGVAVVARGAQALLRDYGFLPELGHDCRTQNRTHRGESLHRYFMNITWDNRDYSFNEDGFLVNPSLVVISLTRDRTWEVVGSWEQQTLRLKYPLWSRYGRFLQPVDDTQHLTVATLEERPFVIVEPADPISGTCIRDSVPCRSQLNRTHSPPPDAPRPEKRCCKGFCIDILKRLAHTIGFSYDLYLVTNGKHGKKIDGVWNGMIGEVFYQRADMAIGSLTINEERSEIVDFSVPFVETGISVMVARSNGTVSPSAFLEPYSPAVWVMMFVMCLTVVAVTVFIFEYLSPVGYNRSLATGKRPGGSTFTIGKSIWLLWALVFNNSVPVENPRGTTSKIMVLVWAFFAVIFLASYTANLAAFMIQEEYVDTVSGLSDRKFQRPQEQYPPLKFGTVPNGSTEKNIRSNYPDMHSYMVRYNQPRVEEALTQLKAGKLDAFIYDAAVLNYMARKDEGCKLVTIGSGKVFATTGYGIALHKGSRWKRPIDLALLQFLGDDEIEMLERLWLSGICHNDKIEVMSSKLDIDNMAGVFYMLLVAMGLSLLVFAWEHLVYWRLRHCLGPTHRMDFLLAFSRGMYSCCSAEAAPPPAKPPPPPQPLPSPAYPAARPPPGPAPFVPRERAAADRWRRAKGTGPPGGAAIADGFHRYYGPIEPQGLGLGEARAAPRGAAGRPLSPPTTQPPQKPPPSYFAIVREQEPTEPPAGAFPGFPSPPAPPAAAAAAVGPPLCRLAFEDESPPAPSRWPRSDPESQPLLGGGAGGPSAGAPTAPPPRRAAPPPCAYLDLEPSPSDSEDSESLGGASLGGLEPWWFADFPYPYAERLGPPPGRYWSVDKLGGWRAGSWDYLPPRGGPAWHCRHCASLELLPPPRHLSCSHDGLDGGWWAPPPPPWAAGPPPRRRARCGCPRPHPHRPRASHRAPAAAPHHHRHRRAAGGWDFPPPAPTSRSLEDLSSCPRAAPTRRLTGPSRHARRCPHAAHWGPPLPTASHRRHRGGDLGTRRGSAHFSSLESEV

`CC12CC3CC(C)(C1)CC(N)(C3)C2` [memantine] showed an IC50 (GluN1–1a/2B; −20 mV, + 1 mM Mg2+) of 9500 ± 600 nM, an IC50 (GluN1–1a/2B; [1]) of 2700 ± 200 nM and an IC50 (GluN1–1a/2B; −40 mV, + 1 mM Mg2+) of 12000 ± 2000 nM. The IC50 (GluN1–1a/2B; [2]) was 1300 ± 100 nM, the IC50 (GluN1–1a/2B; −60 mV, + 1 mM Mg2+) was 8900 ± 1500 nM and the IC50 (GluN1–1a/2B; [3]) was 600 nM. The “IC50 ratio (Mg2+/control)” value (GluN1–1a/2B; −20 mV) was 3.5, the “IC50 ratio (Mg2+/control)” value (GluN1–1a/2B; −40 mV) was 9.2 and the “IC50 ratio (Mg2+/control)” value (GluN1–1a/2B; −60 mV) was 14.8. For the same compound, the IC50 (GluN1–1a/2D; −20 mV, + 1 mM Mg2+) was 1400 ± 100 nM, the IC50 (GluN1–1a/2D; [1]) was 1100 ± 100 nM and the IC50 (GluN1–1a/2D; −40 mV, + 1 mM Mg2+) was 1000 nM. For the same compound, the IC50 (GluN1–1a/2D; [2]) was 700 nM, the IC50 (GluN1–1a/2D; −60 mV, + 1 mM Mg2+) was 800 nM and the IC50 (GluN1–1a/2D; [3]) was 400 nM. The “IC50 ratio (Mg2+/control)” value (GluN1–1a/2D; −20 mV) was 1.3, the “IC50 ratio (Mg2+/control)” value (GluN1–1a/2D; −40 mV) was 1.4 and the “IC50 ratio (Mg2+/control)” value (GluN1–1a/2D; −60 mV) was 2.0. The IC50 (GluN1–1a/2BC1/2DC2; −20 mV, + 1 mM Mg2+) was 3200 ± 100 nM, the IC50 (GluN1–1a/2BC1/2DC2; [1]) was 2500 ± 400 nM and the IC50 (GluN1–1a/2BC1/2DC2; −40 mV, + 1 mM Mg2+) was 2600 ± 200 nM. The IC50 (GluN1–1a/2BC1/2DC2; [2]) was 1200 ± 100 nM, the IC50 (GluN1–1a/2BC1/2DC2; −60 mV, + 1 mM Mg2+) was 2600 ± 300 nM and the IC50 (GluN1–1a/2BC1/2DC2; [3]) was 600 nM. For the same compound, the “IC50 ratio (Mg2+/control)” value (GluN1–1a/2BC1/2DC2; −20 mV) was 1.3, the “IC50 ratio (Mg2+/control)” value (GluN1–1a/2BC1/2DC2; −40 mV) was 2.2 and the “IC50 ratio (Mg2+/control)” value (GluN1–1a/2BC1/2DC2; −60 mV) was 4.3.
